Test results as given in paper PMC4558368.

Chains of the proteins cited; added tags and fusions are not shown. Lines headed by an entry give the natural chain unless they say otherwise; changes in a name come on top.
UniProt P08637: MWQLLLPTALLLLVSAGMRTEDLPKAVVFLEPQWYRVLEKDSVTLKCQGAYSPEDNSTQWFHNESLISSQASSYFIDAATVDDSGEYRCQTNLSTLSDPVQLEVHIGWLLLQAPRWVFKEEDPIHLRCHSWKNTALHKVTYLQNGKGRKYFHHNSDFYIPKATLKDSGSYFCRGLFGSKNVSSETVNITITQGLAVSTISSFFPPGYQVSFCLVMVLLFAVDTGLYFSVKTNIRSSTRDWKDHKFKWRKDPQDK

Target: Extracellular region of FcγRIIIa (residues 19-193, V158 allotype) (UniProt P08637)
Assay: SPR

- Kd: 5 µM
Substance: (1)GlcNAc-Fc wt (human IgG1 Fc with a single GlcNAc residue attached at N297) (domain or fragment)
